Reference: patent publication US20110262355A1, “COMPOSITIONS COMPRISING ENZYME-CLEAVABLE OPIOID PRODRUGS AND INHIBITORS THEREOF” (priority 2010, published 2011)

Molecular target: T1, trypsin from bovine pancreas (Bos taurus, UniProt P00760)
T1 sequence (P00760 24-246): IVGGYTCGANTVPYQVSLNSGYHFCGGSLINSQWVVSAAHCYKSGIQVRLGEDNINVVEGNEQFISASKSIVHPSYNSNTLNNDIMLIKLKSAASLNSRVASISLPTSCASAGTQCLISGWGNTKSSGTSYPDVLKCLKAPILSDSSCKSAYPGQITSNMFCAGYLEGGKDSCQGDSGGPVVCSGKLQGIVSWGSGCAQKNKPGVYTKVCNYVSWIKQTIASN
Experiment: In vitro trypsin conversion of prodrugs to hydromorphone and inhibition by trypsin inhibitor
Conditions: 0.761 mM prodrug; 0.02 to 0.0228 mg/mL trypsin; 37° C.; no trypsin inhibitor

Row | Molecule | Rate of HM formation, umols/h/umol trypsin Average ± sd
1 | CC(=O)NC(CCCNC(=N)N)C(=O)NCCN(C)C(=O)Oc1ccc2c3c1OC1C(=O)CCC4C(C2)N(C)CCC314 (stereo not drawn) [Compound PC-1, hydromorphone 3-(N-methyl-N-(2-N′-acetylarginylamino)) ethylcarbamate] | 230 ± 8 umols/h/umol trypsin
2 | [2-((S)-2-malonylamino-4-amino-pentanoyl amino)-ethyl]-ethyl-carbamic acid hydromorphone ester [Compound PC-5] | 106 ± 2 umols/h/umol trypsin
3 | [2-(2-Malonyl-5-guanidino-pentanoylamino)-ethyl]-ethyl-carbamic acid hydromorphone ester [Compound PC-6] | 262 ± 11 umols/h/umol trypsin
